Experimental data reported in paper PMC6345774, “Kinetic and thermodynamic effects of phosphorylation on p53 binding to MDM2” (Scientific Reports, 2019).

Assays:
MDM2 = conditions: read-out: Kd of other p53 peptides of different lengths; cited from earlier work
Text: We were able to obtain much more accurate Kd values by using ITC. Since ITC is the gold-standard[37] for determining binding affinities, we refer to these Kd values in our subsequent discussion.

[1] = Far-UV CD of isolated peptides in aqueous solution (helicity); type: physicochemical; conditions: 5 °C, 50 mM phosphate pH 6.8
Description: Spectra were acquired on a Jasco J815 spectropolarimeter (Jasco, Japan) interfaced with a Peltier unit. The instrument was periodically calibrated with (+) 10-camphorsulphonic acid. Far-UV measurements (in aqueous or TFE solutions) were performed in 0.1-cm-pathlength quartz cells (Hellma), with a response time of 2 s, a band width of 1 nm, data were collected every 0.2 nm, and a scan velocity of 50 nm/min (or 20 nm/min). Six (or five) scans were averaged and collected between 195 and 250 nm or between 190 nm and 260 nm (for the highest concentration assayed). In all peptides, two concentrations (10 μM and 70 μM) in aqueous solutions (50 mM sodium phosphate buffer, pH 6.8 […]) were used to determine whether either the shapes or the intensities of the spectra were concentration-dependent. […] In all cases (aqueous solution or TFE titrations), the corresponding blank solutions (containing only buffer, or buffer and the corresponding amount of TFE) were subtracted from the spectra.
For the TFE titrations, a peptide concentration of 40 μM was used. The samples were prepared the day before and left overnight at 5 °C to reach equilibrium. The experiments in aqueous solution were acquired at 5 °C, in 50 mM sodium phosphate buffer, pH 6.8. Raw ellipticity was converted to molar ellipiticity, [Θ], from which the percentage of helical populations was determined. […]

| Compound | Kd (MDM2) | molar ellipticity at 222 nm, [Θ]222 ([1]; far-UV CD) | % Helix in water ([Θ]222) ([1]; from molar ellipticity at 222 nm assuming 100% helix = −31500 deg cm^2 dmol^−1) |
| --- | --- | --- | --- |
| Ser15-Asn29: p53 peptide of different length (residues Ser15-Asn29) from ref 23 | 0.5 µM |  |  |
| Glu17-Leu26: p53 peptide of different length (residues Glu17-Leu26) from ref 23 | 0.046 µM |  |  |
| CC(=O)N[C@@H](CCC(=O)O)C(=O)N[C@H](C(=O)N[C@@H](Cc1ccccc1)C(=O)N[C@@H](CO)C(=O)N[C@@H](CC(=O)O)C(=O)N[C@@H](CC(C)C)C(=O)N[C@@H](Cc1c[nH]c2ccccc12)C(=O)N[C@@H](CCCCN)C(=O)N[C@@H](CC(C)C)C(=O)N[C@@H](CC(C)C)C(=O)N1CCC[C@H]1C(=O)N[C@@H](CCC(=O)O)C(=O)N[C@@H](CC(N)=O)C(N)=O)[C@@H](C)O [P53-WT] |  | −2741 deg cm^2 dmol^−1 | 8.7% |
